Results reported in patent publication US20200246352A1, “Vanadyl and vanadate for use in reducing stress-induced metabolic derangement” (CFM Pharma Holding B.V., priority 2017, published 2020).

Tested on: healthy male Wistar rats
Conditions: high adrenaline dose (HA) 1 μg/kg/min
Procedure: In the first part of the study (Table 1, Table 3, series 1), thirteen (13) healthy male Wistar rats were anesthetized by intraperitoneal (ip.) injection of thiopental (Tiobarbital 0.5 g, Braun Medical SA) after 12 hours of fasting.

CNCC(O)c1ccc(O)c(O)c1 (stereo not drawn) [adrenaline]
Blood glucose levels, individual animals in duplicate (120 min): 16.6 mM/l | Blood glucose levels, individual animals in duplicate (150 min): 17.1 mM/l | Blood glucose levels, individual animals in duplicate (180 min): 18.4 mM/l and 17.0 mM/l and 16.8 mM/l

Where “and” joins values, the source holds several entries; their conditions need not be identical. Identical values can stand only once. Like-named read-outs stand apart in the source and are kept apart here.
